Measured values taken from US8075900B2, “Melanoma associated peptide analogues and vaccines against melanoma” (The United States of America, as represented by the …, priority 1996, dated 2011).

Tested on: T2 target cells, Melan-A/MART-1 27-35-reactive TIL 1235 lymphocytes
Experiment: Chromium-release assay, target cell sensitization for lysis by TIL 1235
Type: cell-based, human
Conditions: E:T 20:1, T2 target cells preincubated 90 min with 1 μM peptide, 5 hours
Experimental: Chromium release assays were performed as described previously (Bakker et al., 1994, J. Exp. Med. 179:1005). Briefly, 10^6 target cells were incubated with 100 mCi Na2^51CrO4 (Amersham, Bucks, UK) for 1 hour. Various amounts of effector cells were then added to the target cells in triplicate wells of U bottomed microliter plates (Costar, Badhoevedorp, The Netherlands) in a final volume of 150 ml. In peptide recognition assays, target cells were pre-incubated with various concentrations of peptide for 30 or 60 min at 37° C. in a volume of 100 ml prior to the addition of effector cells. After 5 h of incubation, part of the supernatant was harvested and its radioactive content was measured. The mean percentage specific lysis of triplicate wells was calculated using the formula: % specific lysis=((experimental release−spontaneous release)÷(maximal release−spontaneous release))×100.

Question: AAGIGILTV [reference compound] was tested. Which “target cell lysis by TIL 1235 (% specific lysis)” value did it give?
Answer: 40%
